Data published in ChEMBL document CHEMBL2331395, “Natural product coumarins that inhibit human carbonic anhydrases” (Bioorg Med Chem, 2013).

Experiments:
[1] = molecular target: Carbonic anhydrase 9 (Homo sapiens, UniProt Q16790); assay: Inhibition of human carbonic anhydrase 9 preincubated for 6 hrs by CO2 hydration stopped-flow assay
In short: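 Recombinant enzymes were used at 8.6 nM for CA II and 6.9 nM for CA IX. Each was preincubated with inhibitor for 6 h at room temperature. CO2 hydration was followed for 10-100 s by phenol red (0.2 mM) absorbance in 10 mM Hepes pH 7.5 with 0.1 M NaClO4. The substrate was saturated CO2 water at 20 °C, and inhibitor dilutions went down to 1 nM. IC50 was fitted by non-linear least squares at 1.7 mM CO2 and converted to Ki by Cheng-Prusoff, from three determinations.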

[2] = molecular target: Carbonic anhydrase 12 (Homo sapiens, UniProt O43570); assay: Inhibition of human carbonic anhydrase 12 preincubated for 6 hrs by CO2 hydration stopped-flow assay

- Ki [1]: > 1 mM
- Ki [2]: > 1 mM
SMILES: O=c1ccc2ccccc2o1 [COUMARIN]
